Results on one substance are retold here after patent US7052705B2, “Anti-angiogenic peptides” (Regeneron Pharmaceuticals, Inc., priority 2001, dated 2006).

Sequences of proteins named here, by UniProt entry; tags and fusion partners are left off. Residues count along the entry.
UniProt O14786, 22-923: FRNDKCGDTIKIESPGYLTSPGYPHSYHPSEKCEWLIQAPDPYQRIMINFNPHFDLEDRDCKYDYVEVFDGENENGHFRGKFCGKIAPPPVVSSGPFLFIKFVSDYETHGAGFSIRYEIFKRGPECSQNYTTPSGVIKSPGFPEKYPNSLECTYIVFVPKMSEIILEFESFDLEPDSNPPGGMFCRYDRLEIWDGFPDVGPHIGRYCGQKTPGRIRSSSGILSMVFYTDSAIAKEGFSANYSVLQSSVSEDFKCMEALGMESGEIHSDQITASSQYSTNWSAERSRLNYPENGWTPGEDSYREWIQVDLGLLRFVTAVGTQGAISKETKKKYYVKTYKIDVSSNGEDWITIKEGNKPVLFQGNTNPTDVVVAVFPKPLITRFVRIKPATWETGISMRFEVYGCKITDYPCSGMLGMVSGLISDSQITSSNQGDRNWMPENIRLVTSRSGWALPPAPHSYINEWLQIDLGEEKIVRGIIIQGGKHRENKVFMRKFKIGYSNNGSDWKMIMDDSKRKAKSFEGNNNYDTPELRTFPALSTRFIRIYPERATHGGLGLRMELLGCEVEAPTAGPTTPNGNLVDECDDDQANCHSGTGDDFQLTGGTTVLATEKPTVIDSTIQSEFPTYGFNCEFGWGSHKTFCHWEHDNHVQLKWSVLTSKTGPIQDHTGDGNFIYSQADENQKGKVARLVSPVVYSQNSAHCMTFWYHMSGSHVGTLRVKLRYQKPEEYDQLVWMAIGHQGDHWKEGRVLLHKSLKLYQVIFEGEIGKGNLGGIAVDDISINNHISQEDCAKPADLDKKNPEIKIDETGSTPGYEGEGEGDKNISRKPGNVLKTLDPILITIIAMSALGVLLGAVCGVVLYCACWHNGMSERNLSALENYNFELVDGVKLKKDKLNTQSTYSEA
UniProt P35968, 20-1356: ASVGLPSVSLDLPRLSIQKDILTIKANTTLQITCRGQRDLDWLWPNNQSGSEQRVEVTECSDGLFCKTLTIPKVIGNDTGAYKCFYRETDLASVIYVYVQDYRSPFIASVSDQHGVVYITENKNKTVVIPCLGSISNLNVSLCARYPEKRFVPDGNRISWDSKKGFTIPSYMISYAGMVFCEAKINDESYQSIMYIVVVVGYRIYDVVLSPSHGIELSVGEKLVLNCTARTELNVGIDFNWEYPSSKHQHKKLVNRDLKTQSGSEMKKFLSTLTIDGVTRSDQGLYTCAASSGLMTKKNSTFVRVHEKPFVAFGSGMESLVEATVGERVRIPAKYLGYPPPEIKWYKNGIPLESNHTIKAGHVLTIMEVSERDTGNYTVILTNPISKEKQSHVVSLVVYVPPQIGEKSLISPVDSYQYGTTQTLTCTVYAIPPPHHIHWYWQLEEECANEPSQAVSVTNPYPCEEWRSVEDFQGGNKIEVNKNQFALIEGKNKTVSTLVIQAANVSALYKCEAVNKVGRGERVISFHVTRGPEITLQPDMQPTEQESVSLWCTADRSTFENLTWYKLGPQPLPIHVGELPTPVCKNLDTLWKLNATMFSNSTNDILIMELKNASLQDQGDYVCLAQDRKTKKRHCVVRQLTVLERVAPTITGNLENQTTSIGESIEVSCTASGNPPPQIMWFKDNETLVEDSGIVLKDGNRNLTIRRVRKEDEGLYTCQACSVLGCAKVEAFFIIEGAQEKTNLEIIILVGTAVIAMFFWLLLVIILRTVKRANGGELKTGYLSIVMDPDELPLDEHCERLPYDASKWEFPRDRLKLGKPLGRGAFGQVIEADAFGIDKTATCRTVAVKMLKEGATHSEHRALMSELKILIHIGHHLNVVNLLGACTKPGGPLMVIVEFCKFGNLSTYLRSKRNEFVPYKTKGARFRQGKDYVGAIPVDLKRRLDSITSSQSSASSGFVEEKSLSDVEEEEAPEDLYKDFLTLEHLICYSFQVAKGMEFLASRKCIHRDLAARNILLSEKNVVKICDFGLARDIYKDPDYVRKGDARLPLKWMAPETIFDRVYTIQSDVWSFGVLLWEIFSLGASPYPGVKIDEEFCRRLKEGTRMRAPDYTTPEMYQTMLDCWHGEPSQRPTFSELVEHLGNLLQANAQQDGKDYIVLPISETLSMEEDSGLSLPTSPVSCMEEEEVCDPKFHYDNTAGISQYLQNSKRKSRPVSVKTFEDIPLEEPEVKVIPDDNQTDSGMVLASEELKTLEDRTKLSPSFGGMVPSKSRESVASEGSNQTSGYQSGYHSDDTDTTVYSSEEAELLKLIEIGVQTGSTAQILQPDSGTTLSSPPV

The test system of one experiment is T1, VEGFR-2/NP-1.
T1 construct: In the COS-1 cells overexpressing the full-length VEGFR-2; the NP-1 cDNA used for these experiments would only produce the full-length receptor; expressed in transfected cells; host or cells: COS-1
Format: binding, human. On the procedure:
(§1) When co-expressing VEGFR-2 and NP-1, 5 μg of VEGFR-2 cDNA and 2 μg of NP-1 cDNA are used. When the receptors are expressed in isolation, for VEGFR-2, 5 μg of VEGFR-2 cDNA and 2 μg of mock vector cDNA are used.
(§2) After generation of the liposome/DNA solution, the cells are rinsed one time with 5 ml Optimem I, then replaced with another 5 ml of Optimem I containing the liposome/DNA solution. The cells are incubated for two to four hours at 37° C., 5% CO2, then 5 ml of COS-1 cell growth medium is applied and the transfection is allowed to proceed overnight. The following day, cells are trypsinized (0.2% trypsin, 1 mM EDTA, Gibco-BRL), and cells containing common transfectants are pooled. […] The cells are then used for corresponding VEGFR-2/NP-1 complex formation and peptide blocking studies.
(§3) Cells are plated the day before experimentation at 200,000 cells per well in twelve well tissue culture plates (VWR) in 1 ml of growth medium specific for each cell type. […]
(§4) Unbound ligand is then removed by quickly washing three times with 5 ml ice cold BSA-free binding buffer (MEM, Gibco, 25 mM Hepes, Gibco). Cells are lysed by the addition of 250 μl of RIPS Buffer (previously described), and the lysed cells are transferred to 12×75 mm test tubes and counted using a gamma counter. […]

The next experiment has as its target NP-1 (Homo sapiens, UniProt O14786). Format: binding. Also noted: the NP-1 cDNA used for these experiments would only produce the full-length receptor; expressed in transfected cells; host or cells: COS-1. As to the method:
as §1, §2, §3, §4

In a further experiment the target is T2, VEGFR-2 (Homo sapiens, UniProt P35968).
T2 construct: In the COS-1 cells overexpressing the full-length VEGFR-2; expressed in transfected cells; host or cells: COS-1
Format: binding. As to the method:
as §1, §2, §3, §4

Take “H-RRPKGRAAARREKQRPSDKPRR-OH [AS-2, RRP KGR AM RRE KQR PSD KPR R]”: the “Relative Affinity to Lead Peptide (RALP), VEGFR-2/NP-1” value with VEGFR-2/NP-1 was determined as 9. Also, the “Relative Affinity to Lead Peptide (RALP), NP-1” value at NP-1 was 28. For the same substance, on VEGFR-2, the “Relative Affinity to Lead Peptide (RALP), VEGFR-2” value amounted to 10.
